Results: paper PMC5526615, “Phenotypic, chemical and functional characterization of cyclic nucleotide phosphodiesterase 4 (PDE4) as a potential anthelmintic drug target” (PLoS Neglected Tropical Diseases, 2017)

Test system: Nc1ncnc2c1ncn2[C@@H]1O[C@@H]2COP(=O)(O)O[C@H]2[C@H]1O
Assay: purified protein, by the assay type
Settings: other: cAMP substrate up to 10 μM, 23.5 units/ml SmPDE4A

SmPDE4A (Schistosoma mansoni)
Km: 3.0 µM
Vmax: 32.6 pmol/min
